Earlier results, collected in patent US20170015852A1, “INK COMPOSITION” (KERACOL LIMITED, priority 2014, published 2017).

System: human health

- threat to human health: pose no threat to human health
Substance: anthocyanins
